Assay results as given in patent US20250195513A1, “DEGRADATION OF IRAK4 BY CONJUGATION OF IRAK4 INHIBITORS WITH E3 LIGASE LIGAND AND METHODS OF USE” (BeiGene, Ltd., priority 2022, published 2025).

By UniProt entry, the sequences of proteins in these tests, tags left out.
UniProt Q9NWZ3, whole entry: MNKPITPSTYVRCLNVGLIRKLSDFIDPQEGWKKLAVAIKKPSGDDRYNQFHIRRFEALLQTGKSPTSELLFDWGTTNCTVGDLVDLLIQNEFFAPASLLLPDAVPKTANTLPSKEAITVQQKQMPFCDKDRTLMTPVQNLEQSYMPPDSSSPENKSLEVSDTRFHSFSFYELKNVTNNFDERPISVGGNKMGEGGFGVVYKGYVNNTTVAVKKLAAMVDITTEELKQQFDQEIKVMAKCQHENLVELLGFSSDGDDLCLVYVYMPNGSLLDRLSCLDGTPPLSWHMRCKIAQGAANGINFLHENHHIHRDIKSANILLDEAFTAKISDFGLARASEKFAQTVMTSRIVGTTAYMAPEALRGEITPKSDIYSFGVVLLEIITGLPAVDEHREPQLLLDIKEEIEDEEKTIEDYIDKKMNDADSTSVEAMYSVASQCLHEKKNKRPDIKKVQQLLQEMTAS

Biological target: IRAK4 (Homo sapiens, UniProt Q9NWZ3)
Experiment: IRAK4 Degradation Assay (Karpas299, HTRF/TR-FRET)
Details: Karpas-299 cells, 24 h treatment
Protocol: IRAK4 degradation was measured using a TR-FRET-based method (Degorce, François, et al. Current chemical genomics. 2009, 3: 22). Karpas299 maintained in RPMI 1640 medium (Thermo Scientific) supplemented with 20% fetal bovine serum (FBS, Thermo Scientific), 100 units/mL penicillin and 0.1 mg/mL streptomycin (Thermo Scientific) were seeded into 96-well plates at the density of 0.2 million cells per well and then treated with a series dilution of compounds. After 24 hours or 5 hours treatment, cells were pelleted via centrifugation and 40 μL lysis buffer (Cisbio) was added to each well after removal of the supernatant. Plates were then incubated at room temperature with shaking for 30 minutes. […] IRAK4 level was quantitated using the HTRF kit as described by the manufacturer manual (Cisbio). FRET signals were measured using a PHERAstar FSX reader (BMG Labtech).
After treatment, add HTRF lysis buffer to each well; seal the plate and incubate 1 hour at room temperature on a plate shaker; Once the cells are lysed, 16 μL of cell lysate are transferred to a PE 384-well HTRF detection plate; 4 μL of pre-mixed HTRF antibodies are added to each well; Cover the plate with a plate sealer, spin 1000 rpm for 1 min, Incubate overnight at room temperature; Read on BMG PheraStar with HTRF protocol (337 nm-665 nm-620 nm). […]

IRAK4 in Karpas-299 (24 h) Dmax (%) (maximum percentage of degradation): 97% | DC50 (read-out: IRAK4 in Karpas-299 (24 h) DC50): 17 nM
Structure (SMILES): COc1cc2nn([C@H]3CC[C@H](NC(=O)[C@H]4CC[C@H](Oc5cc(F)c(C6CCC(=O)NC6=O)c(F)c5)CC4)CC3)cc2cc1NC(=O)c1cccc(C(F)(F)F)n1 (some centres unmarked)
